In ChEMBL document CHEMBL3085673, “The design of a novel series of muscarinic receptor antagonists leading to AZD8683, a potential inhaled treatment for COPD” (Bioorg Med Chem Lett, 2013) one finds PPB data, which are given here for two compounds.

The nature of the data set: Plasma protein binding in human. It counts as ADME, cell-free.

In turn, `O=C(O[C@H]1CN2CCC1CC2)C1(c2cccs2)CCCCCC1` came in with a PPB of 95%. Regarding `O=C(O[C@H]1CN2CCC1CC2)C1(c2ccccc2)CCCCCC1`, the PPB was determined as 95%.
